These results are taken from patent US20240398943A1, “METHODS OF TREATING CANCER AND THE PHARMACEUTICAL COMPOSITIONS THEREOF” (SYSTIMMUNE, INC., priority 2021, published 2024).

This data set concerns FaDu cells (wild type EGFR) tumor xenograft. Conditions: all dose groups of the treatment. As to the method:
Xenotransplantation of human cancer cells into immunocompromised mice is a gold-standard model used for pre-clinical oncology research and testing of anti-cancer therapies. In general, human cancer cell lines are injected below the skin of the mouse. […] The primary outcome parameter is growth inhibition by the drug, for which tumor size is measured over time, often externally with calipers. After the tumor reaches a certain size, the mice are euthanized. Drug effects on the tumor are further analyzed on a tissue level or molecular level (e.g., DNA, proteins). The primary outcome parameter of a xenograft model for testing drug efficacy is the growth of the treated tumor versus control. Typically, xenograft tumors grow from 100 mm^3 (6 mm diameter) to 1000 mm^3 (12 mm diameter) in several weeks. The growth rate often declines with larger tumor sizes, as opposed to exponential growth in (2D) in vitro experiments. Tumor growth inhibition varies per drug and implanted cell line. […]
Tumor volume (mm3) V=½×(a×b)^2, where a represents the long diameter and b represents the short diameter. […] The T/C value (%) can also be calculated as T/C %=TTW/CTW×100%, where TTW is the average tumor weight at the end of the treatment group experiment and CTW is the average tumor weight at the end of the control group experiment.

For the substance paclitaxel+carboplatin, the “toxicity / safety assessment” value was “more toxic and is less safe than SI-B001 single-agent”.
